ChEMBL document CHEMBL5550090, “Synthesis and biological evaluation of 1H-pyrrolo[3,2-g]isoquinolines” (Bioorg Med Chem, 2024)

Key:
[1] = target: T1, Serine/threonine-protein kinase haspin (Homo sapiens) (UniProt Q8TF76); assay type: cell-based; details: U2OS, dose 0.5 µM, time 18.0 hrs
T1 sequence (whole entry): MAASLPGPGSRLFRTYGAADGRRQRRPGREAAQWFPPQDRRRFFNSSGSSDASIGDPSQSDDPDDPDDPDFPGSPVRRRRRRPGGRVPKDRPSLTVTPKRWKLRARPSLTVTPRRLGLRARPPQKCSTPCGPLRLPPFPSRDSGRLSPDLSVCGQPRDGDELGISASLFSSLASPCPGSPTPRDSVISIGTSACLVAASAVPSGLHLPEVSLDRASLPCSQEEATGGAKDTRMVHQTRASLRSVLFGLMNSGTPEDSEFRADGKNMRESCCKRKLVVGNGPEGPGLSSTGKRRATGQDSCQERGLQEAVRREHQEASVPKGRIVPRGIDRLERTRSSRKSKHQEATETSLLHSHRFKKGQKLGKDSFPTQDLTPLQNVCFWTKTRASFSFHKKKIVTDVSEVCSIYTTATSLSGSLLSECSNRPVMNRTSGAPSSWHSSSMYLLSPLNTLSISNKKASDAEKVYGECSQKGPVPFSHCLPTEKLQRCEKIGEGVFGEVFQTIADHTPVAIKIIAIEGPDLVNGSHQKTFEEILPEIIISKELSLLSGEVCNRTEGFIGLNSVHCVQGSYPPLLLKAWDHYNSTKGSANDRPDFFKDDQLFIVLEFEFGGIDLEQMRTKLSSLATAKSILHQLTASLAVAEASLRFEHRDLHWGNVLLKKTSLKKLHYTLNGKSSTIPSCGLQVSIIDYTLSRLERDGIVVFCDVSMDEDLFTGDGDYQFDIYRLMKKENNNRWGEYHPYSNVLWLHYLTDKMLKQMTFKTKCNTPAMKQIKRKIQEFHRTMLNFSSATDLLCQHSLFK

[2] = Selectivity index, ratio of IC50 for recombinant rat DYRK1A kinase domain (1 to 499 residues) expressed in bacteria to IC50 for recombinant human Haspin kinase domain (470 to 798 residues) expressed in bacteria
Homo sapiens = organism: Homo sapiens; test: Selectivity index, ratio of IC50 for human recombinant PIM-1 expressed in bacteria to IC50 for recombinant human Haspin kinase domain (470 to 798 residues) expressed in bacteria

Structure (SMILES) | Ratio IC50 [2] | other results
CCCNc1ccc2ncc(-c3ccc4[nH]ncc4c3)n2n1 |  | inhibition [1]: Active
CCn1ncc2cc3cnccc3c(N)c21 | 4 | 
Brc1c[nH]c2cc3cnccc3cc12 |  | Ratio IC50 (Homo sapiens): 5.4
Ic1c[nH]c2cc3cnccc3cc12 | 5 | 

Activity calls are given as the source filed them. The rule behind the calls is not given here.
